Measured values reported in article PMC5639367 (2017).

Sequences of proteins named here, by UniProt entry; tags and fusion partners are left off. A line that says so, or that is headed by a name, gives the form on record, which may keep a tag or linker. Residues count along the entry.
UniProt P40337, 54-213, chain 1 of 3: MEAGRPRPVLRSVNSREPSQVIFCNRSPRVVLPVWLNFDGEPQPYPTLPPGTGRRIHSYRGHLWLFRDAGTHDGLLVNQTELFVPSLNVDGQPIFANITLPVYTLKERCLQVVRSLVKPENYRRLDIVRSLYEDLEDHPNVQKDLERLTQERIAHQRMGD
VBC ternary complex (pVHL, Elongin B, Elongin C), UniProt Q15370, 1-104, chain 2 of 3: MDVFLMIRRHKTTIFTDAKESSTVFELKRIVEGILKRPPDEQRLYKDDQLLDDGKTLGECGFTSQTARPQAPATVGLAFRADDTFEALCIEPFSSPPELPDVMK
VBC ternary complex (pVHL, Elongin B, Elongin C), UniProt Q15369, other isoform, or with tags, fused parts or gaps, chain 3 of 3: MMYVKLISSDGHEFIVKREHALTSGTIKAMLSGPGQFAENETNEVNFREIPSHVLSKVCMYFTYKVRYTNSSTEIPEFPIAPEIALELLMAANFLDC

Each binder was assayed against VBC ternary complex (pVHL, Elongin B, Elongin C) (UniProt P40337 1-213; Q15370 1-104; Q15369 17-112) (assay: BLI).
Binder MSLKPRV (C-terminal amide) [N-terminal Cul2 peptide, 7-mer] has a Kd of 3.5 mM.
MSLKPR (C-terminal amide) [N-terminal Cul2 peptide, 6-mer] showed a Kd of 3.3 mM.
MSLKPRVVDF (C-terminal amide) [N-terminal Cul2 peptide, 10-mer] gave a Kd of 4 mM.
